The chains behind the UniProt entries cited, without tags or fusion partners.
UniProt P51681, whole entry: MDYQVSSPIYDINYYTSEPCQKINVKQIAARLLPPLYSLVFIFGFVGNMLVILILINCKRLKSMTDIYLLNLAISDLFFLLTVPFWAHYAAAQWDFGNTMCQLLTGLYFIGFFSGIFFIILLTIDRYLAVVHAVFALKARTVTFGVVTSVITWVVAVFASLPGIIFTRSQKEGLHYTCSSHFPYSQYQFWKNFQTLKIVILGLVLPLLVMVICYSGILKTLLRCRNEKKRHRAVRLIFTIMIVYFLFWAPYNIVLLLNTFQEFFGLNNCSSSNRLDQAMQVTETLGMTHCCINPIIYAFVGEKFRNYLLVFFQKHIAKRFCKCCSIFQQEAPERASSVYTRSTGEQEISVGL

According to article PMC8972196, “A Set of Experimentally Validated Decoys for the Human CC Chemokine Receptor 7 (CCR7) Obtained by Virtual Screening” (Frontiers in Pharmacology, 2022):

How the values were obtained:
human CCR7 = target: T1, human CCR7 (Homo sapiens, UniProt P32248); test: CCL19-induced calcium mobilization assay, U87.CD4 cells expressing CCR7; type: cell-based
T1 construct: expressed in transfected cells
T1 sequence (P32248 25-378): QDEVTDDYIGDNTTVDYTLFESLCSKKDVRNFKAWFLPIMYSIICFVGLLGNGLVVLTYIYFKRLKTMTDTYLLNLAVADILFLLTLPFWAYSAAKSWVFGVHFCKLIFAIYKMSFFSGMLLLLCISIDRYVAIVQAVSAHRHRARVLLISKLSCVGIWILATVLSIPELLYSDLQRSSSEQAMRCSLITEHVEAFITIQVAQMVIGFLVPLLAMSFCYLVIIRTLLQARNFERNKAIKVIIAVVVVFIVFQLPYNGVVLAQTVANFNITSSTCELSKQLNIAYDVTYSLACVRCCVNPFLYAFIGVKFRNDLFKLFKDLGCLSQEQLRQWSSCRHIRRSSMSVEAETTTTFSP
Description: U87.CD4 cells that stably express either human CCR7, CXCR2, CCR5 or CXCR4 were seeded (20,000 cells/well) in gelatin-coated black-walled polystyrene 96-well plates with clear bottom and incubated overnight at 37°C and 5% CO2. […] Culture medium was removed, and cells were incubated for 45 min at room temperature in the dark. […] Exactly the same protocol was used to record calcium responses in Chinese hamster ovary (CHO)-K1 cells, upon stimulation with adenosine triphosphate (ATP, purchased from Sigma).

human CCR5 = target: T2, human CCR5 (Homo sapiens, UniProt P51681); type: cell-based; conditions: result in words
T2 construct: expressed in transfected cells
Description: U87.CD4 cells that stably express either human CCR7, CXCR2, CCR5 or CXCR4 were seeded (20,000 cells/well) in gelatin-coated black-walled polystyrene 96-well plates with clear bottom and incubated overnight at 37°C and 5% CO2. The next day, a fluorescent Ca^2+-sensitive dye solution (Fluo-2 AM) was prepared as described before ([Claes et al., 2018]). Culture medium was removed, and cells were incubated for 45 min at room temperature in the dark. Meanwhile, 96-well polypropylene plates containing 5-fold concentrated compound dilutions and 5-fold concentrated solution of chemokine ligands (CCL19, CXCL8, LD78-β, CXCL12, respectively; all purchased from PeproTech) were prepared for use with the FLIPR Tetra device (Molecular Devices) as described before ([Claes et al., 2018]). The antagonistic properties of the compounds were calculated based on their capacity to inhibit the Ca^2+ release induced by a fixed concentration of chemokine (i.e. 50 ng/mL final concentration for CCL19, CXCL8 and CXCL12 and 100 ng/ml for LD78-β), as described ([Claes et al., 2018]). Exactly the same protocol was used to record calcium responses in Chinese hamster ovary (CHO)-K1 cells, upon stimulation with adenosine triphosphate (ATP, purchased from Sigma).

Row | Structure (SMILES) | CCR7 antagonism in calcium mobilization assay (human CCR7; CCL19-induced, result in words) | Decoy – 0 Active – 1 (human CCR7; classification of tested compounds as decoy or active) | effect on CCR5 mediated calcium response (human CCR5)
1 | CC(C)(C)c1ccc(S(=O)(=O)Nc2ccc(Cl)cc2C(=O)c2cc[n+]([O-])cc2)cc1 [Vercirnon, reference compound] | absence of activity | 0 | –
2 | Cc1ccc([C@@H](NC2=NS(=O)(=O)N=C2Nc2ccc(C)c(C(=O)N(C)C)c2O)C(C)(C)C)o1 [Cmp2105] | – | – | no (or only very limited) effect
